Experimental data: ChEMBL document CHEMBL1154107, “Inhibitors of VIM-2 by screening pharmacologically active and click-chemistry compound libraries” (Bioorg Med Chem, 2009)

How the values were obtained:
[1] = system: Escherichia coli; assay: Antibacterial activity against imipenem-resistant Escherichia coli BL21(DE3) expressing VIM2 gene after 18 hrs by twofold serial broth dilution method; format: functional
Outline: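 Two-fold serial broth dilution MIC per CLSI, 10-point dilutions in Iso-Sensitest broth, 2 mL tubes. BL21 grown 5 h at 37°C in LB (kanamycin 30 μg/mL for pET-9a VIM-2 transformants). Inoculum 5 × 10^5 CFU/mL; shaken ≥18 h at 37°C aerobically.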

[2] = Inhibition of IMP1 using nitrocefin as substrate after 15 mins by microtiter plate assay
[3] = Inhibition of TEM-1 using nitrocefin as substrate after 15 mins by microtiter plate assay
[4] = Inhibition of Enterobacter cloacae AmpC using nitrocefin as substrate after 15 mins by microtiter plate assay

SMILES | MIC [1] [mg/L] | IC50 [2] [µM] | IC50 [3] [µM] | IC50 [4] [µM]
C[C@@H](O)[C@H]1C(=O)N2C(C(=O)O)=C(SCCNC=N)C[C@H]12 [IMIPENEM ANHYDROUS] | 1.9 (≈ 6.35 µM) | – | – | –
O=C1c2c(O)ccc(O)c2C(=O)c2c(NCCNCCO)ccc(NCCNCCO)c21 [MITOXANTRONE] | – | > 56 | > 25 | > 25

Converted amounts (≈) assume the structure as drawn.
